Patent US20040192665A1 (priority 2002, published 2004)

System: DU-145 human prostate tumor cells
Assay: DU-145 xenograft tumor growth in nude mice
Assay type: in vivo, nude mice (nu/nu)
Conditions: experiment 2; I.P. 8 mg/kg once per week; 46 days after injection
Experimental: Cage were cleaned and bedding changed once weekly. Irradiated corn cob bedding was used. Animals were observed daily and clinical signs were noted.
Morbidity and mortality were monitored daily.
The dosage level was determined by exact body weight.
Five mice per treatment group were tested.
Animals were treated once per week for 5 weeks.

## COc1cccc2c1C(=O)c1c(O)c3c(c(O)c1C2=O)C[C@@](O)(C(=O)CO)C[C@@H]3O[C@H]1C[C@H](N)[C@H](O)[C@H](C)O1 [doxorubicin]
  average tumor volume: 106 mm^3
